# Experimental vapor pressure values from OPERA 2.9

From the experimental data distributed with OPERA 2.9.

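OPERA's authors assembled the values from existing databases and did not measure them anew. One number stands for a compound and property, with no spread given. How each value was measured is not recorded, so precision varies. A value may pool stereoisomers or salt forms, and the file does not say which form was measured. Some entries may be limits or estimates that an upstream database listed as plain numbers.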

Vapor pressure is log10 of mmHg; the set covers 15 to 30 °C, mostly 20 to 25 °C. Cells with "–" have no entry in this list.

| log VP (log10 mmHg) | compound | name |
|---|---|---|
| -0.523 | CCC(C)NCCO (stereo unspecified) | 2-[(1-Methylpropyl)amino]ethanol |
| -3.362 | Cc1ncc[nH]1 | 2-Methylimidazole |
| -5.472 | NC(=O)c1cccnc1 | Niacinamide |
| 1.571 | CCOC(F)(F)C(F)(F)C(F)(F)C(F)(F)C(F)(F)F | 1-Ethoxy-1,1,2,2,3,3,4,4,5,5,5-undecafluoropentane |
| -2.215 | COC(=O)NC[Si](C)(OC)OC | Methyl (dimethoxy(methyl)silyl)methylcarbamate |
| -0.426 | Clc1ccc2nc(Cl)oc2c1 | 2,6-Dichlorobenzoxazole |
| 0.154 | COC(=O)C1CCCO1 (stereo unspecified) | Methyl oxolane-2-carboxylate |
| -3.189 | COC(=O)[C@H](O)[C@@H](O)C(=O)OC | – |
| -5.235 | Clc1cc(Cl)cc(-c2cc(Cl)c(Cl)c(Cl)c2)c1 | 3,3',4,5,5'-Pentachlorobiphenyl |
| -3.943 | Clc1ccccc1-c1c(Cl)c(Cl)cc(Cl)c1Cl | 2,2',3,5,6-Pentachlorobiphenyl |
| -6.401 | C=CCCCCCCCCCCCCCCCCCCCCCCCCCC | 1-Octacosene |
| -4.657 | C=CS(=O)(=O)CS(=O)(=O)C=C | Ethene, 1,1'-[methylenebis(sulfonyl)]bis- |
| 0.111 | O=COCCOC=O | 1,2-Ethanediol, 1,2-diformate |
| -3.694 | OCCCNCCO | 3-((2-Hydroxyethyl)amino)propanol |
| 0.914 | CCOCCCO | 3-Ethoxy-1-propanol |
| -4.913 | COC(=O)c1ccccc1-c1ccc(CBr)cc1 | Methyl 4'-(bromomethyl)[1,1'-biphenyl]-2-carboxylate |
| -0.71 | CC(C)(O)c1ccccc1 | 2-Phenylpropan-2-ol |
| 2.107 | COC(F)(F)C(C(F)(F)F)C(F)(F)F | 1,1,1,3,3-Pentafluoro-3-methoxy-2-(trifluoromethyl)propane |
| -0.158 | CCCOC(=O)[C@H](C)O | Propyl (2S)-2-hydroxypropanoate |
| -4.425 | Clc1cc(-c2c(Cl)cccc2Cl)c(Cl)c(Cl)c1Cl | 2,2',3,4,5,6'-Hexachlorobiphenyl |
| -6.36 | COc1ccc(C(=O)c2ccccc2O)c(O)c1 | 2,2'-Dihydroxy-4-methoxybenzophenone |
| -0.097 | OCCCCCCCl | 6-Chlorohexan-1-ol |
| -8.007 | COc1cc(Cc2cnc(N)nc2N)cc(OC)c1OC | Trimethoprim |
| -9.634 | O=S(=O)([O-])CCN1CCN(CCS(=O)(=O)[O-])CC1.[Na+].[Na+] | 1,4-Piperazinediethanesulfonic acid, disodium salt |
| 0.377 | FC(F)(I)C(F)(F)C(F)(F)C(F)(F)C(F)(F)C(F)(F)I | 1,6-Diiodoperfluorohexane |
| -5.634 | CC(O)CO.CCCCN(CCO)CCCC.O=C(O)/C=C\C(=O)O | – |
| 1.807 | CC1CCOC1 (stereo unspecified) | Furan, tetrahydro-3-methyl- |
| -7.887 | CCCCCCCCCCCCCCCCCC(=O)NCCCN(C)CCCNC(=O)CCCCCCCCCCCCCCCCC | Octadecanamide, N,N'-[(methylimino)di-3,1-propanediyl]bis- |
| -4.444 | CCCCCCCCCCCCCCCCOC(C)=O | Hexadecyl acetate |
| -4.415 | CC(C)CCCCCCCCCCCCCCC(=O)OC(C)C(=O)OC(C)C(=O)[O-].[Na+] (stereo unspecified) | Sodium isostearoyl-2-lactylate |
| -5.648 | CC(C)CCCCCCCCCCCCCCC(=O)[O-].CC(C)CCCCCCCCCCCCCCC(=O)[O-].[Ca+2] | Calcium isostearate |
| -6.581 | O=C([O-])C(O)C(O)C(O)C(O)C(O)CO.[Na+] | – |
| -6.619 | Oc1cc2c(cc1O)[C@H]1c3ccc(O)c(O)c3OC[C@@]1(O)C2 | Hematoxylin |
| 1.114 | C=CCOC(=O)CC(C)C | Allyl isovalerate |
| -4.996 | Clc1cccc(Cl)c1-c1c(Cl)c(Cl)c(Cl)c(Cl)c1Cl | 2,2',3,4,5,6,6'-Heptachlorobiphenyl |
| -10.65 | C[C@]12CC[C@@H]3c4ccc(O)cc4CC[C@H]3[C@@H]1CC[C@@H]2O | 17beta-Estradiol |
| -0.299 | N#CCC[Si](Cl)(Cl)Cl | 3-(Trichlorosilyl)propanenitrile |
| 0.176 | CCCC(C)C(=O)O (stereo unspecified) | 2-Methylpentanoic acid |
| -5.964 | CCCCC(CC)COC(=O)CCCCCCCCC(=O)OCC(CC)CCCC (stereo unspecified) | Bis(2-ethylhexyl) decanedioate |

Repeated from above, the 3 entries with the highest log VP:

| compound | name | log VP (log10 mmHg) |
|---|---|---|
| COC(F)(F)C(C(F)(F)F)C(F)(F)F | 1,1,1,3,3-Pentafluoro-3-methoxy-2-(trifluoromethyl)propane | 2.107 |
| CC1CCOC1 (stereo unspecified) | Furan, tetrahydro-3-methyl- | 1.807 |
| CCOC(F)(F)C(F)(F)C(F)(F)C(F)(F)C(F)(F)F | 1-Ethoxy-1,1,2,2,3,3,4,4,5,5,5-undecafluoropentane | 1.571 |